From US5821219A (priority 1995, dated 1998)

Amino acid sequences for entries named in this document (tags omitted). A change or cut given only in a name is not applied to a line headed by its entry.
UniProt P35370: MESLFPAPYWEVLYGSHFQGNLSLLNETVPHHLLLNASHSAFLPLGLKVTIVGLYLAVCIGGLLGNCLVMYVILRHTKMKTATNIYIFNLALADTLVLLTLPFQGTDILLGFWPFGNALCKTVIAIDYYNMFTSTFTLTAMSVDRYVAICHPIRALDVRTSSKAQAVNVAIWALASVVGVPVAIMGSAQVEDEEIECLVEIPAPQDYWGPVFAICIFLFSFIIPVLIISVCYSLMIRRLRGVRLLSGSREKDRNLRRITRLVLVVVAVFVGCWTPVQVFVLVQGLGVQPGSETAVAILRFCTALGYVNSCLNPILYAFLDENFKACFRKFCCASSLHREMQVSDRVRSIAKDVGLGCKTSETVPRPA

Biological target: novel mammalian opioid receptor (LC132, MSOR, OFQR) (Rattus norvegicus, UniProt P35370)
Conditions: membranes from transient (COS-7) and stable (Ltk-) transfectants, 120 min at 22° C.

CO[C@]12CC[C@@]3(C[C@@H]1C(C)(C)O)[C@H]1Cc4ccc(O)c5c4[C@@]3(CCN1CC1CC1)[C@H]2O5
specific binding of the radioactively-labeled ligand: no specific binding
